The structures appear in SMILES notation.

The chains behind the UniProt entries cited, without tags or fusion partners. Residues count along the entry.
UniProt P35918, 804-1169: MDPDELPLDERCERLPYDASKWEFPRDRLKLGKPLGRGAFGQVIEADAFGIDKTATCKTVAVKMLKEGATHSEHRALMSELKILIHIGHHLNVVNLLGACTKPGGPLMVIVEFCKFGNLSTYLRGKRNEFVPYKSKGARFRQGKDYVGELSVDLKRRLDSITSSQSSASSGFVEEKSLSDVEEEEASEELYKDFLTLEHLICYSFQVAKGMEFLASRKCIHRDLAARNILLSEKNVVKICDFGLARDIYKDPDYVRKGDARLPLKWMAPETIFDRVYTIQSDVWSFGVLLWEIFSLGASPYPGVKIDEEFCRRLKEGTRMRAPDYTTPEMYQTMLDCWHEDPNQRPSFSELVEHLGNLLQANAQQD

For this assay, the target named is mVEGFR (Mus musculus, UniProt P35918). Briefly: biochemical.

The compound `CNC(=O)c1cc(Oc2ccc(NC(=O)Nc3ccc(Cl)c(C(F)(F)F)c3)cc2)ccn1` had an IC50 of 1 nM.
